The results in this text go back to patent EP1383793B1 (priority 2000, dated 2001).

Sequences of proteins named here, by UniProt entry; tags and fusion partners are left off. Residues count along the entry.
UniProt P06213, 28-758 limits assumed: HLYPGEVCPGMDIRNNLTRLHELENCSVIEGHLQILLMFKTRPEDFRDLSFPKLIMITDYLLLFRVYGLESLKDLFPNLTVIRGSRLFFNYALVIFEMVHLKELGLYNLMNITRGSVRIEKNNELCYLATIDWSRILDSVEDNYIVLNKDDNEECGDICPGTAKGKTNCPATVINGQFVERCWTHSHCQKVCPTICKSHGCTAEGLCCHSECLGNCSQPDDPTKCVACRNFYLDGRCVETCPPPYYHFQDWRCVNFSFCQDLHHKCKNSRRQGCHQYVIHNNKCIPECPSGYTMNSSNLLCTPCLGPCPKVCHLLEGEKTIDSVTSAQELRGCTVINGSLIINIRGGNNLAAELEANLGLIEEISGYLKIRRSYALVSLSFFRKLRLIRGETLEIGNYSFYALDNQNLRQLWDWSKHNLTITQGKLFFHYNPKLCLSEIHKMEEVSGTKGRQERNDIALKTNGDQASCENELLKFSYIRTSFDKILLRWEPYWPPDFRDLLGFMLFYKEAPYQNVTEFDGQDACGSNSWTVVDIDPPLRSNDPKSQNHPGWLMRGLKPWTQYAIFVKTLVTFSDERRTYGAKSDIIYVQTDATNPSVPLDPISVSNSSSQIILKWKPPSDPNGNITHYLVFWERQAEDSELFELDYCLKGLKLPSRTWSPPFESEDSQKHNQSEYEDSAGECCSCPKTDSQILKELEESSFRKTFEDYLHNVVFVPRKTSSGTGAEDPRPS
UniProt P06213, 763-956 limits assumed: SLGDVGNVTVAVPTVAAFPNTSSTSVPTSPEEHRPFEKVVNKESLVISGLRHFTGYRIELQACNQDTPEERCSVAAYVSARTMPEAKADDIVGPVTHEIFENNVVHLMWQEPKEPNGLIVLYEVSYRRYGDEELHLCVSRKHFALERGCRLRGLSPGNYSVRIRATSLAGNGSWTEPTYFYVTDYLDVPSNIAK
UniProt P06213, 763-1382 limits assumed: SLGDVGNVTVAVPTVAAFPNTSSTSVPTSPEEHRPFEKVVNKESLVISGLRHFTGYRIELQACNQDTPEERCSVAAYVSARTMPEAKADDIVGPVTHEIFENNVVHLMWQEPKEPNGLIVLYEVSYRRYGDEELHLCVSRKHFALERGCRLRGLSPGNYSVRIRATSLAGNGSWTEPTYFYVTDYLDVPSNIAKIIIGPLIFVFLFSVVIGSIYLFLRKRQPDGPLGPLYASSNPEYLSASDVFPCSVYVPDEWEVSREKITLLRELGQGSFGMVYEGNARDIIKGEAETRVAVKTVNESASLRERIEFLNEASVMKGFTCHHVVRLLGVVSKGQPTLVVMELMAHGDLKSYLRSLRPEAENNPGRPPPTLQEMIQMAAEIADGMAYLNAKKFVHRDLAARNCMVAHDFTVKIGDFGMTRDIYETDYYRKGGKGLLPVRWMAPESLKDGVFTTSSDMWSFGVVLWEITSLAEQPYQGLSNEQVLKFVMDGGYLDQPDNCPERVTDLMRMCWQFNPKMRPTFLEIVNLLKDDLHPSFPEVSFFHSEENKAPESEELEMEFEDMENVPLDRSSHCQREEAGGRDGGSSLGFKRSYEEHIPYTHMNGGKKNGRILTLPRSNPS
UniProt P08069, 741-935 limits assumed: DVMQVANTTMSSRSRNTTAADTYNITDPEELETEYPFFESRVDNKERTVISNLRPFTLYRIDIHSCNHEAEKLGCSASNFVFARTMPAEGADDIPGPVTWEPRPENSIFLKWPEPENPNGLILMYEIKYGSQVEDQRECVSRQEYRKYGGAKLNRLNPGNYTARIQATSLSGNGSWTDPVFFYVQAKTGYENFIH
UniProt P08069, 31-736 limits assumed: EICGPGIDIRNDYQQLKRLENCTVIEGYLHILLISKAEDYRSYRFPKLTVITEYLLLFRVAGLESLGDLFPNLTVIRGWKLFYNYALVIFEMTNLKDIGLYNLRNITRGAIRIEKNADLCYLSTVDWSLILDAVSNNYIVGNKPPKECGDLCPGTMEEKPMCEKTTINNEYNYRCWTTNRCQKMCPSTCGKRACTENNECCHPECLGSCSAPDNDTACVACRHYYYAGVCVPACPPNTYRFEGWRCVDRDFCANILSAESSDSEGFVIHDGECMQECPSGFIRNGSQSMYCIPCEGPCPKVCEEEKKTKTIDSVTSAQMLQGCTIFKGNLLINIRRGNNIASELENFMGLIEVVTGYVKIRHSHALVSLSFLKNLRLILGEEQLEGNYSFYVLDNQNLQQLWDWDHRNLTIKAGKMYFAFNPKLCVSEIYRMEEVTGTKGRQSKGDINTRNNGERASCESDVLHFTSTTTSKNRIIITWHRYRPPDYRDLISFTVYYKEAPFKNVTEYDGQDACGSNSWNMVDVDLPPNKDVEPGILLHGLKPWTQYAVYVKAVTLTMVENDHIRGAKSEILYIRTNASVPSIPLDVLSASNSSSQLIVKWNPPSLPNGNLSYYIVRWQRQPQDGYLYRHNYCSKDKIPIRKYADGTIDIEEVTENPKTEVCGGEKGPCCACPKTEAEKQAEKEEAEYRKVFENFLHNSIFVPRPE
UniProt P08069, 741-1367 limits assumed: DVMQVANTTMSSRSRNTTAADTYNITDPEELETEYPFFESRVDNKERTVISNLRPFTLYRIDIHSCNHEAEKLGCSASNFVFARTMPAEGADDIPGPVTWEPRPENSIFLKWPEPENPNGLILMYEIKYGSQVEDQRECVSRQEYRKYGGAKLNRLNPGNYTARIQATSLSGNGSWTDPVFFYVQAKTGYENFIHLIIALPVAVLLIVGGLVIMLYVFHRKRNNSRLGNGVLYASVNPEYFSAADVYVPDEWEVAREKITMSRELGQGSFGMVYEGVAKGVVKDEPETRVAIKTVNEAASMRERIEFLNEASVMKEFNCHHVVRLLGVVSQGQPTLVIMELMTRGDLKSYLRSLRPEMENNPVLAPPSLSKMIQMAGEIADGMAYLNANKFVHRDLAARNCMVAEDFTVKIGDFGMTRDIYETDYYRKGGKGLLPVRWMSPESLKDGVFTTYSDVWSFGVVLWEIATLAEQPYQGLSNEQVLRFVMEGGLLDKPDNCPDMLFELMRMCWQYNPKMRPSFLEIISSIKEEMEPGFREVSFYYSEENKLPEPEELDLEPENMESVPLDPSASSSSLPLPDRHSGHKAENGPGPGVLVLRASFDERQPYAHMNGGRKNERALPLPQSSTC

What is called Kd is the constant that tells how readily two partners part at equilibrium.

One assay concerns the target T1, IR (Homo sapiens, UniProt P06213).
T1 construct: composed of the extracellular domains of both the α and β chains of the natural receptor; made in house; background b13 names human embryonic kidney 293 cells for the Bass et al. construct
Put plainly: Phage ELISA, competition of phage binding by soluble synthetic peptides, IR-coated wells. The settings on record: read-out: Kd (Hill plot); Insulin Receptor, 20D3 Phage. A general note: An ELISA detects its analyte on a solid surface through an enzyme-linked reagent.

The next assay addresses T2, IGF-1R (Homo sapiens, UniProt P08069).
T2 construct: Soluble IGF-1R was obtained from R&D Systems; purchased R&D Systems 391-GR/CF
The assay can be described thus: Phage ELISA, competition of phage binding by soluble synthetic peptides, IGF-1R-coated wells. The settings on record: read-out: Kd (Hill plot), IGF Receptor.

In assay [1] the target is T3, human insulin receptor (HIR) (Homo sapiens, UniProt P06213).
T3 construct: made in house
The assay can be described thus: 125I-insulin competition binding assay on solubilised purified receptor. The settings on record: read-out: Kd (µM) HIR.

Assay [2] has as its target human IGF-1 receptor (HIGF-1R) (Homo sapiens, UniProt P08069). The assay can be described thus: 125I-IGF-1 competition binding assay on solubilised purified receptor. As to conditions: read-out: Kd (µM) HIGF1R.

Where two headings read alike, the source gives them in different places.

Turning to FHENFYDWFVRQVSKK [Clone H2C], the Kd on IR was determined as 0.564 µM; on IGF-1R (20D3 Phage), 5.05 µM; at IGF-1R (H2 Phage), 3.72 µM; in assay [1] it was 0.7 µM; in assay [2], 6.1 µM.
